Earlier results, collected in patent US20210100869A1, “COMPOSITIONS AND METHODS OF USING SAME FOR TREATING AMYOTROPHIC LATERAL SCLEROSIS (ALS)” (Immunity Pharma Ltd., priority 2018, published 2021).

Test system: ALS patients
Settings: estimated moderate effect; cited from earlier work

Nc1nc2ccc(OC(F)(F)F)cc2s1 [riluzole]
Extension in patient survival: three months extension in patient survival
